From PubChem
JMJD2E inh = blocks human JMJD2E demethylase activity; B2RXH2; JMJD2E catalytic domain, FDH-coupled NADH fluorescence (FDH is formaldehyde dehydrogenase); Potency, µM (series often up to 57.1 µM), without a hit: at the highest dose activity change, negative = inhibition, hits mostly inhibitors; actives 1.6% (n = 230,000); active = well fitted inhibition curve with a large enough effect, not every such curve was filed as active; inconclusive = small, poorly fitted or top-dose-only effect, or another doubt; inactive = no such curve, though single readings can be large or run the other way;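 note: potency is the fitted concentration of half-maximal effect; 0% = wells with enzyme and -100% = buffer wells without enzyme; nearly all actives have a fitted effect of over 50% in size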
miR-21 reporter = miR-21 reporter, rising signal. 340,000 tested, under 10 active. Potency, µM (highest dose often 38.3 µM), for the others: at the highest dose reporter change, positive = more light. HeLa miR-21 FLuc reporter, luciferase, 48 h. AID 2288; active = well fitted rising curve with a large enough effect; inconclusive = small, poorly fitted or top-dose-only effect; inactive = no such curve, though single readings can be large or run the other way;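 further: % of control where 0% means no effect; miR-21 action dims this reporter so a rising signal means less miR-21 action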
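HeLa miR-21-FLuc reporter line, endogenous miR-21; 2000 cells/well in DMEM/10% FBS; compound titration up to ~40uM final, 48 h, 37 degree Celsius; luciferase detection reagent, 15 min lysis, CCD luminescence.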
Sfp PPTase inh = blocks B. subtilis Sfp PPTase activity; Q9F4F7; Biochemical Sfp PPTase activity, qHTS; Potency, µM, for the others: max response, negative = inhibition, most hits filed as inhibitors; actives 3.5% (n = 310,000); AID 1490; active = well fitted inhibition curve with a large enough effect; inconclusive = small, poorly fitted or top-dose-only effect, or another doubt; inactive = no such curve, though single readings can be large or run the other way;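 also: the enzyme is Sfp with the accession as filed and its product quenches rhodamine fluorescence; potency is read from the fitted curve at half-maximal effect; 0% = enzyme reaction without inhibitor and -100% = no enzyme wells; top concentration of the series not given in the record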
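Compounds were incubated with enzyme (final 15 nM) for 15 min at room temperature before substrate addition started the reaction. Fluorescence at 525 nm excitation, 598 nm emission was recorded immediately and after 30 minutes.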
Lamin A splicing = changes lamin A minigene splicing in HeLa cells; HeLa LMNA splicing GFP/RFP minigene ratio, 48 h; Potency, µM (series often up to 46.1 µM), inactives show top-dose ratio change, negative = inhibition, most hits filed as inhibitors; actives 0.01% (n = 200,000); AID 1487; active = well fitted inhibition curve with a large enough effect in the signal ratio, with a control signal flat, not every such curve was filed as active; inconclusive = small, poorly fitted or top-dose-only effect, or effect the other way, or a change in a side signal; the % refers to the signal ratio; note: potency is the fitted concentration of half-maximal effect; % is set by controls: 0 for no effect and ±100 for the full control effect
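Read-out is the ratio of GFP to DsRed2 object intensity, acquired by 488 nm laser-scanning cytometry on HeLa lamin A-EGFP minigene reporter cells. Compound incubation 48 hrs at 37 °C in Opti-MEM with 2% FBS; DMSO 0.5% final.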
ALDH1A1 block = blocks purified human ALDH1A1 activity; P00352; AID 1030; Potency, µM (highest dose often 75.3 µM), without a hit: at the highest dose activity, negative = inhibition, hits mostly inhibitors; Purified ALDH1A1, NADH fluorescence, propionaldehyde substrate; actives 7.3% (n = 220,000); active = well fitted inhibition curve with a large enough effect, not every such curve was filed as active; inconclusive = small, poorly fitted or top-dose-only effect, or another doubt; inactive = no such curve, though single readings can be large or run the other way;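 note: potency is the fitted concentration of half-maximal effect; plate controls were no enzyme wells and a reference inhibitor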
G9a block = G9a (human) methyltransferase inhibition; actives 8.8% (n = 350,000); Potency, µM (series often up to 102 µM), without a hit: at the top dose activity, negative = inhibition, actives largely listed as inhibitors; Q96KQ7; G9a H3K9 monomethylation, AlphaScreen, 2 h; AID 504332; note: potency is the fitted concentration of half-maximal effect; % is set by controls: 0 for no effect and ±100 for the full control effect; nearly all actives have a fitted effect of over 75% in size
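Readings reflect AlphaScreen signal from monomethyl-H3K9 antibody detection. HMT at 20 nM; substrate b-H3K9 500 nM; cofactor SAM 20 uM; 2 h RT reaction; compounds tested as titrations in qHTS with 15 min preincubation.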
* marks the source's active call; other numbers are inactive results; ? = inconclusive; nt = not tested or not shown; [ ] = remark or other dose. Shown are actives, neighbours in structure and some others; about 13% of the full set was active somewhere. Unless noted, calls come from the whole dose curve; as a rule, active = well fitted curve in the direction sought with a large enough effect; inconclusive = small, poorly fitted or top-dose-only effect, or another doubt; inactive = no such curve, though single readings can be large; an effect the other way counts as inactive or inconclusive.

No.	SMILES	JMJD2E inh	miR-21 reporter	Sfp PPTase inh	Lamin A splicing	ALDH1A1 block	G9a block
1	O=C(NC1CCCCCCC1)c1cccnc1	nt	-22.8%	31.3%	nt	nt	-7.0%
2	CCCCn1c(N)c(N(CC(C)C)C(=O)C(C)SCc2nc3sc(C)c(C)c3c(=O)[nH]2)c(=O)[nH]c1=O (stereo unspecified)	nt	nt	nt	nt	nt	35.5µM*
3	COc1cc2c(cc1OC)CN(C(=O)/C=C/c1ccccc1[N+](=O)[O-])CC2	nt	15.9%	10.3%	nt	nt	?
4	CCc1cccc(CC)c1NC(=O)CN1CCc2cc(OC)c(OC)cc2C1	nt	16.9%	-15.2%	nt	nt	70.8µM*
5	COc1cc([N+](=O)[O-])ccc1NC(=O)CN1CCc2cc(OC)c(OC)cc2C1	nt	-7.3%	-1.4%	nt	nt	28.2µM*
6	COc1cc2c(cc1OC)CN(C(=O)/C=C/c1ccc([N+](=O)[O-])cc1)CC2	nt	0.2%	-9.9%	nt	nt	50.1µM*
7	COC(=O)CSc1cc([N+](=O)[O-])ccc1NC(=O)OC	-12.1%	1.0%	-8.9%	nt	?	35.5µM*
8	COc1cc2c(cc1OC)CN(CC(=O)Nc1cccc(C)c1)CC2	?	-11.3%	19.2%	-9.7%	-1.1%	6.4%[59 µM]
9	Cc1csc2nc(SCC(=O)N3CCN(c4ccccc4)CC3)[nH]c(=O)c12	nt	-6.9%	-4.3%	nt	nt	-5.4%
10	COc1cc(Cl)c(C)cc1NC(=O)c1ccc(CN2C(=O)CCn3nc(C)cc32)cc1	nt	-0.2%	nt	nt	nt	-28.2%[59 µM]
11	COc1cc2c(cc1OC)CN(CC(=O)Nc1ccccc1C(=O)NCc1ccccc1)CC2	nt	0.4%	2.6%	nt	nt	13.7%
12	COc1cc2c(cc1OC)CN(CC(=O)NC(=O)NCc1ccccc1)CC2	?	1.2%	-7.6%	?	28.2µM*	56.2µM*
13	O=C(/C(=C/O)N=Nc1ccc(Cl)cc1)c1ccncc1	-29.5%	0.0%	-1.2%	-11.2%	10µM*	16.6%[0.501 µM]
14	Cc1ccc(S(=O)(=O)NNC(=O)c2ccncc2)cc1	4.6%	-9.9%	-18.4%	-11.2%	3.2%	-2.2%
15	Cc1ccc(N=N/C(=C\O)C(=O)c2ccncc2)cc1	-10.6%	-0.3%	-3.8%	?	3.98µM*	?
16	O=C(Nc1ccncc1)c1ccc(Cl)cc1	nt	-6.0%	11.2%	nt	nt	-4.0%
17	CC1CN(C(=O)N2CCC(C(=O)NCCCc3ccccc3)CC2)c2ccccc2O1 (stereo unspecified)	nt	-1.8%	nt	20.3%[46 µM]	nt	-5.0%[59 µM]
18	COc1ccccc1CCNC(=O)c1ccc(C)o1	-1.7%	-23.8%	12.1%	13.4%	-2.0%	-0.4%[12.7 µM]
19	COc1ccccc1CCNC(=O)c1nccnc1C(=O)O	nt	-0.9%	16.0%	nt	nt	35.5µM*
20	CN1CCC2(CC1)CCN(C(=O)c1cccc(F)c1)CC2	nt	nt	17.1%	nt	9.3%	2.3%[12.7 µM]
21	O=C(Cc1ccc(F)cc1)OCN1C(=O)c2ccccc2C1=O	nt	11.3%	-12.8%	nt	nt	28.2µM*
22	CCOc1ccc(CC(=O)OCN2C(=O)c3ccccc3C2=O)cc1	10.1%	0.4%	89.1µM*	0.0%	?	39.8µM*
23	CCN(CC)C(=O)Cn1cc(S(=O)(=O)CC(=O)NCc2ccccc2)c2ccccc21	nt	0.1%	9.6%	nt	nt	6.3%
24	NC(=O)c1ccc(NC(=O)CCc2nc3ccccc3s2)cc1	-4.7%	-0.3%	-19.2%	-10.9%[46 µM]	-6.9%	35.5µM*
25	O=C(CCc1nc2ccccc2s1)Nc1cccnc1	-8.5%	-12.0%	-8.8%	10.8%[9.22 µM]	-13.9%	39.8µM*
26	COC(=O)[C@@]1(Cc2ccc(F)cc2)[C@H]2c3cc(C(=O)N(C)C)n(CCc4ccc(O)c(O)c4)c3C[C@H]2CN1C(=O)c1ccccc1	?	nt	-28.6%	nt	-8.5%	nt
27	Cc1cc([N+](=O)[O-])nn1CCCC(=O)Nc1cc(Cl)ccc1Cl	4.3%	-3.6%	1.0%	22.5%[46 µM]	2.0%	-8.1%
28	Clc1ccccc1Cn1c(/C=C/c2ccco2)nc2ccccc21	?	-1.1%	50.1µM*	?	?	10µM*
29	O=C(NCCCc1nc2ccccc2n1Cc1ccccc1Cl)c1ccco1	nt	6.4%	nt	nt	nt	6.7%[59 µM]
30	Cc1ccccc1Cn1c(CN2CCc3ccccc3C2)nc2c1c(=O)n(C)c(=O)n2C	?	-3.2%	10.7%	?	31.6µM*	?
31	Cn1c(=O)c2c(nc(N3CCc4ccccc4C3)n2Cc2ccccc2F)n(C)c1=O	0.2%	0.6%	-13.6%	-4.4%	?	-16.8%[59 µM]
32	COC(=O)Cn1c(CN2CCOCC2)nc2c1c(=O)n(C)c(=O)n2C	nt	-1.9%	12.5%	nt	nt	?
33	COC(=O)Cn1c(CN2CCc3ccccc3C2)nc2c1c(=O)n(C)c(=O)n2C	-22.2%	3.0%	8.6%	-9.0%	-4.5%	50.1µM*
34	CC1OC(OC2C(OC3C(O[C@H]4CC[C@]5(C)C6C=C[C@]78OC[C@@]9(CC[C@@H](C)[C@H](C)C97)[C@H](O)C[C@@]8(C)[C@]6(C)CC[C@H]5C4(C)C)OC(C)C(O)C3O)OC(CO)C(O)C2O)C(O)C(O)C1O (stereo partly specified)	-11.3%	?	79.4µM*	nt	nt	-15.1%[12.7 µM]
35	O=C1S/C(=C\C=C\c2ccco2)C(=O)N1c1ccccc1	?	-56.4%	?	?	20µM*	39.8µM*
36	O=C1S/C(=C\c2cccs2)C(=O)N1c1ccc(O)cc1	nt	-46.7%	2.5%	nt	nt	-0.1%
37	O=C1S/C(=C\C=C\c2ccco2)C(=O)N1c1ccc(O)cc1	0.6%	-35.8%	?	-19.5%	17.8µM*	39.8µM*
38	Cc1nc2c(C(=O)NCCc3ccccc3)c[nH]n2c(=O)c1Cl	11.2%	-0.6%	20.0%	-2.6%	0.3%	50.1µM*
39	Cc1nc2c(C(=O)NCCC(C)C)c[nH]n2c(=O)c1Cl	?	0.3%	10.7%	-7.9%	?	?
40	COc1ccc(-c2cc(C(F)(F)F)nc(SCC(=O)NCCc3ccccc3)n2)cc1OC	nt	-22.4%	nt	nt	nt	32.5%[59 µM]
41	CC1CCC(C(C)C)C2=C1C(C#N)(C#N)C(C#N)(C#N)C(c1ccccc1)N2 (stereo unspecified)	?	-31.3%	?	?	10µM*	7.08µM*
42	CCOC(CNC(=O)Cn1nc(C)c2ccccc21)OCC	-5.9%	4.4%	-7.0%	-4.5%[46 µM]	2.5%	30.7%
43	Cc1nn(CC(=O)Nc2nnc(CC(=O)N3CCCC3)s2)c(=O)c2ccccc12	5.0%	0.9%	6.6%	8.3%	1.8%	44.7µM*
44	Cc1nn(CC(=O)Nc2ccc(C(=O)N3CCCCC3)cc2)c(=O)c2ccccc12	4.9%	-0.8%	-8.6%	-10.0%	12.6µM*	?
45	Cc1nn(CC(=O)Nc2ccc(C(=O)N3CCCC3)cc2)c(=O)c2ccccc12	8.6%	-4.6%	17.9%	4.5%	-14.6%	3.7%[12.7 µM]
46	Cc1cc2nc(-c3cc(NC(=O)c4cc5ccccc5o4)ccc3Cl)oc2cc1C	nt	-19.3%	nt	nt	nt	1.7%[59 µM]
47	Cc1c(C(=O)N(CCO)Cc2ccccc2)oc2c(F)cccc12	nt	-71.2%	10.6%	nt	nt	45.4%

Entries listed so far that have an NH in an aromatic ring, in the order listed:
No.	SMILES	JMJD2E inh	miR-21 reporter	Sfp PPTase inh	Lamin A splicing	ALDH1A1 block	G9a block
2	CCCCn1c(N)c(N(CC(C)C)C(=O)C(C)SCc2nc3sc(C)c(C)c3c(=O)[nH]2)c(=O)[nH]c1=O (stereo unspecified)	nt	nt	nt	nt	nt	35.5µM*
9	Cc1csc2nc(SCC(=O)N3CCN(c4ccccc4)CC3)[nH]c(=O)c12	nt	-6.9%	-4.3%	nt	nt	-5.4%
38	Cc1nc2c(C(=O)NCCc3ccccc3)c[nH]n2c(=O)c1Cl	11.2%	-0.6%	20.0%	-2.6%	0.3%	50.1µM*
39	Cc1nc2c(C(=O)NCCC(C)C)c[nH]n2c(=O)c1Cl	?	0.3%	10.7%	-7.9%	?	?
